Results taken from patent publication US9181310B2 (priority 2003, dated 2015).

Columns and labels:
[1] = tested on: citrus (Citrus sinensis x Poncirus trifoliata) cv. Carizzo; assay: Stable transformation of citrus, effect on the plant; conditions: stable transformation with pIPG786
E. coli ER2566 = type: cell-based
[2] = tested on: E. coli strain ADA410 P3rpoH::lacZ reporter (damage to the bacterial outer membrane); assay: P3rpoH::lacZ reporter, purified protein added to ADA410 cells, beta-galactosidase activity; conditions: 10 micrograms purified protein, 25 degrees, 2 hours

COc1ccc2cc3[n+](cc2c1OC)CCc1cc2c(cc1-3)OCO2 [berberine, 5,6-dihydro-9,10-dimethoxybenzo-1,3-benzodioxoloquino-lizimium, reference compound]
effect of berberine on BL21 DE3 cells carrying the pET vector alone (E. coli BL21 DE3 cells): little effect

B1: BombBC: Bacteriophage Outer Membrane Breaching protein of Xanthomonas phage P15 (Xp15) ORF BC, 17.9 kD, SEQ ID NO. 17 (protein, listed as Xanthomonas campestris)
chain: MSDQTDTTQTTPAEKAPPKEIIRGRMPIAVVALARFGSQSTTTTKAAADALGTTVGKIDDIRKNRNFAYVTADFKPTEAQKADGIEWLKRHPVGADALIEELQNLPVATAEESAAFEQVRASARGQNAKTAEGEVAQAGGGNRRKKKEKPAEAGEVQNPPAADGDSLLS
cell debris in the culture (E. coli BL21 DE3 cells): no evidence of cell debris
effect of induced expression on the culture (lysis / quasilysis) (E. coli BL21 DE3 cells): quasilysis
optical density (OD) at 600 nm, 0 hr PI (E. coli BL21 DE3 cells): 0.5
optical density (OD) at 600 nm, 3 hr PI (E. coli BL21 DE3 cells): 0.8 and 0.6
optical density (OD) at 600 nm, 18 hr PI (E. coli BL21 DE3 cells): 0.7 and 0.5
optical density (OD) at 600 nm, 24 hr PI (E. coli BL21 DE3 cells): 0.6 and 0.4
detrimental effect on citrus plants [1]: not detrimental

B2: D2: BombBC deletion, aa 77-169 of BC, SEQ ID 7 (protein)
chain: MTEAQKADGIEWLKRHPVGADALIEELQNLPVATAEESAAFEQVRASARGQNAKTAEGEVAQAGGGNRRKKKEKPAEAGEVQNPPAADGDSLLS
modifications: mutant D2 predicted amino acid sequence
bacterial stasis induced by expression (E. coli ER2566; berberine chloride 250 ug/ml, 0.25 mM IPTG, 20 hrs of induction): clearly induced
activity of expression clone (growth in presence of berberine chloride) (E. coli ER2566; berberine chloride (5 micrograms/ml), 20 h after induction): Active
damage to the bacterial outer membrane by externally applied protein (beta-galactosidase activity) [2]: full BC activity
damage to the bacterial outer membrane by externally applied protein (beta-galactosidase activity) ([2]; listed as BC-D2): equally efficacious

“And” between values parts separate entries of the source, which are not always exact repeats. Equal entries are not always repeated.
